The values below come from BindingDB's records for PubMed 7796807 (Synaptic Pharmaceutical, 1995).

Molecules are shown by their SMILES.

The target in the assay is Neuropeptide Y receptor type 2 (Homo sapiens, UniProt P49146).

As to `CC[C@H](C)[C@H](NC(=O)[C@H](Cc1ccc(O)cc1)NC(=O)[C@H](CCCN=C(N)N)NC(=O)[C@H](CCCNC(=N)N)NC(=O)[C@H](CC(C)C)NC(=O)[C@H](CC(=O)O)NC(=O)[C@H](C)NC(=O)[C@H](C)NC(=O)[C@H](Cc1ccc(O)cc1)NC(=O)[C@H](CCC(N)=O)NC(=O)[C@H](C)NC(=O)[C@H](CCSC)NC(=O)[C@H](CCC(N)=O)NC(=O)[C@H](CCC(=O)O)NC(=O)[C@@H]1CCCN1C(=O)[C@@H](NC(=O)[C@H](C)NC(=O)[C@H](CC(N)=O)NC(=O)[C@H](CC(=O)O)NC(=O)CNC(=O)[C@@H]1CCCN1C(=O)[C@H](Cc1ccc(O)cc1)NC(=O)[C@@H](NC(=O)[C@@H]1CCCN1C(=O)[C@H](CCC(=O)O)NC(=O)[C@H](CC(C)C)NC(=O)[C@@H]1CCCN1C(=O)[C@H](C)N)C(C)C)[C@@H](C)O)C(=O)N[C@@H](CC(N)=O)C(=O)N[C@@H](CCSC)C(=O)N[C@H](C(=O)N[C@H](C(=O)N[C@@H](CCCN=C(N)N)C(=O)N[C@@H](CCC(N)=O)C(=O)N[C@@H](CCCN=C(N)N)C(=O)N[C@@H](Cc1ccc(O)cc1)C(N)=O)[C@@H](C)O)[C@@H](C)CC` [PP [Ile31,Gln34], human], the Ki (usually the equilibrium dissociation constant of an inhibitor or competing ligand from its target) turned out to be 19.9 nM.
